Inhibition and residual activity data for two compounds are collected here from ChEMBL document CHEMBL1681705, “Optimisation of ITK inhibitors through successive iterative design cycles” (Bioorg Med Chem Lett, 2011).

By UniProt entry, the sequences of proteins in these tests, tags left out.
UniProt P22607, whole entry, looked up: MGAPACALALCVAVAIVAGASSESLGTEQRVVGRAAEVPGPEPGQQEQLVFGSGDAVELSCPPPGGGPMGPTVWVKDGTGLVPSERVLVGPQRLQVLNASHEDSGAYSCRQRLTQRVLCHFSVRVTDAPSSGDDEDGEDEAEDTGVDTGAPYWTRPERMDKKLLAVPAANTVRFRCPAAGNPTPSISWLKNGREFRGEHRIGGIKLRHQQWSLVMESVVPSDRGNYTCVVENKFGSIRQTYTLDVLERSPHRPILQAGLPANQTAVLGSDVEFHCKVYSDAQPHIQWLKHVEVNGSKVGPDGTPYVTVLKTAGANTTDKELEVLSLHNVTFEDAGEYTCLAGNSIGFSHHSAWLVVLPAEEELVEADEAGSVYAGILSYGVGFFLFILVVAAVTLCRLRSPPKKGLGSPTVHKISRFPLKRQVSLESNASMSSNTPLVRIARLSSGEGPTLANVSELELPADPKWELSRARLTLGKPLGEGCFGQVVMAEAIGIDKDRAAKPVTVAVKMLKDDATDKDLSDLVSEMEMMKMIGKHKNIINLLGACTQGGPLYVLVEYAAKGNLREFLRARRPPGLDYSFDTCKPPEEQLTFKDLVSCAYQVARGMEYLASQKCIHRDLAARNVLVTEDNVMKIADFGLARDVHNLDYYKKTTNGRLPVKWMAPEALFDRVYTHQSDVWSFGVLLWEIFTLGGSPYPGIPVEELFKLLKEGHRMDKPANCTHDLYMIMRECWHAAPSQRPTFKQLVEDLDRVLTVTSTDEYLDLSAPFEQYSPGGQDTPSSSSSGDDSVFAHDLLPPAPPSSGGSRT
UniProt Q13177, whole entry: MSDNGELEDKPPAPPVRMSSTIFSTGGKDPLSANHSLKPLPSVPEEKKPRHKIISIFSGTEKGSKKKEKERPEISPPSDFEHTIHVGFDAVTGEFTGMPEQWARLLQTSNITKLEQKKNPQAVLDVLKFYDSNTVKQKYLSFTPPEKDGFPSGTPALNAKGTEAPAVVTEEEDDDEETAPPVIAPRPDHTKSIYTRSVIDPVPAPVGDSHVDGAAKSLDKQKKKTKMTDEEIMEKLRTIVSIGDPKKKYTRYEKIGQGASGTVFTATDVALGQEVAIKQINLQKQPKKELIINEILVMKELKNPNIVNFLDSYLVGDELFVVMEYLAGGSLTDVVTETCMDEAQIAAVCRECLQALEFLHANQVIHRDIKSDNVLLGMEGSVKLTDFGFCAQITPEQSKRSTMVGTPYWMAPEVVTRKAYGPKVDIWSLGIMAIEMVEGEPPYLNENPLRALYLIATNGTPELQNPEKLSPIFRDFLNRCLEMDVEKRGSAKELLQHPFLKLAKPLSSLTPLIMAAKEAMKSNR

Experiment [1] deals with Fibroblast growth factor receptor 3 (Homo sapiens) (UniProt P22607). Particulars: 0.1 uM.
The target of experiment [2] is T1, Ephrin type-B receptor 3 (Homo sapiens) (UniProt P54753).
T1 sequence (whole entry): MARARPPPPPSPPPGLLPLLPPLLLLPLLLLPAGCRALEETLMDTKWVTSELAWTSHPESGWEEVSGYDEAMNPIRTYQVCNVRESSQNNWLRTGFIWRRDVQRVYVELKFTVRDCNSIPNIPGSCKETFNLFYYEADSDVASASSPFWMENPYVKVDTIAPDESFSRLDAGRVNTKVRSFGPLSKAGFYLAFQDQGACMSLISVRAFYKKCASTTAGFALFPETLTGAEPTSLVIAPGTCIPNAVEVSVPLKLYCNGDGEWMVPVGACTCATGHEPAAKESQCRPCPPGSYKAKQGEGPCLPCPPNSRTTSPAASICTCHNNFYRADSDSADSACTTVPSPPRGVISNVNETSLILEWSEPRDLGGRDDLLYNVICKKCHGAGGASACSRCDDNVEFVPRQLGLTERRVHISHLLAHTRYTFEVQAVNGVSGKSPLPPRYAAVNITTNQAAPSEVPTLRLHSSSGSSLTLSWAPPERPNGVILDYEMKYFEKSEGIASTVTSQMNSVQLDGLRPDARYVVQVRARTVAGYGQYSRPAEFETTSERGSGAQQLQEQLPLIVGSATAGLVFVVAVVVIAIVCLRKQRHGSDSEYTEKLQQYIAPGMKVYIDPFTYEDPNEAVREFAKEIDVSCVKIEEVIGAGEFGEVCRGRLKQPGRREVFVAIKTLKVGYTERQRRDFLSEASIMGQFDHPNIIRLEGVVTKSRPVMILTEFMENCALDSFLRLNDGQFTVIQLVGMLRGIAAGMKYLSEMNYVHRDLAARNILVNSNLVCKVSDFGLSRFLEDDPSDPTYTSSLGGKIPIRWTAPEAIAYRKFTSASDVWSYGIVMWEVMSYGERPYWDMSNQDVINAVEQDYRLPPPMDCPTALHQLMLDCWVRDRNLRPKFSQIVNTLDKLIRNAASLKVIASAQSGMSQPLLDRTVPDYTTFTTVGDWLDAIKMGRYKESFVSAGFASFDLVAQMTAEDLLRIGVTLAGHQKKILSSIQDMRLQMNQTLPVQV
The experiment is described as follows: Inhibition of EphB3 at 0.1 uM; values are per cent of control.

Experiment [3] in a line: Inhibition of ROCK1 at 1 uM.
The target in experiment [4] is Serine/threonine-protein kinase PAK 2 (Homo sapiens) (UniProt Q13177). The experiment is described as follows: Inhibition of PAK2 at 0.1 uM; values are per cent of control.

Take `Cc1ccc2cc(-c3n[nH]c4ccc(NC5CCN(Cc6ccccc6)CC5)cc34)[nH]c2c1`: the inhibition in experiment [1] worked out at 27%.

On to `Cc1ccc2cc(-c3n[nH]c4ccc(NC5CCNC5)cc34)[nH]c2c1` (stereo not given), for which the residual activity in experiment [2] and in experiment [4] was 83% throughout. Also, the inhibition in experiment [3] and in experiment [1] was 17% in each case.
